# Antibody variant affinities, Ab-14 light chain, assay 1

Reference: Engelhart et al. 2022, doi:10.1038/s41597-022-01779-4. File: FLAb, binding data.

Target: peptide PDVDLGDISGINAS, taken from heptad repeat 2 (HR2) of SARS-CoV-2 spike.

The variants keep the heavy chain, the linker and the frameworks of Ab-14 (scFv order VH, a 15-residue (Gly4Ser)3 linker, VL).
VH: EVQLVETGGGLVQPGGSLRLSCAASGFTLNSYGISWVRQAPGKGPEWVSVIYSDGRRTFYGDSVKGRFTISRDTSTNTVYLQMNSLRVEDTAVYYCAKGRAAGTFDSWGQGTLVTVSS
VL: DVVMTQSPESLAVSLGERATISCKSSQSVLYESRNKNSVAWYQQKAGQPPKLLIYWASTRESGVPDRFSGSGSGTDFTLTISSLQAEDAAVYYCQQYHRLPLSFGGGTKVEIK

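The parent was found by panning a naive human phage display library on the peptide. Variants in AAYL50 differ from the parent at up to three CDR positions; double and triple changes were sampled at random. The assay is AlphaSeq: two haploid yeast populations carry antibody and antigen on their surface. The frequency of each diploid, read from paired DNA barcodes, reflects how well the two displayed proteins bind. Read counts were normalised to the haploid input and turned into Kd by a linear fit to BCL2-family pairs of known affinity, for each replicate. Each pool was mated in three replicate cultures.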

Each variant is given by its three light chain CDRs, as the data file delimits them; those of the parent are KSSQSVLYESRNKNSVA, WASTRES, QQYHRLPLS.
Numbers give log10(Kd / nM), so 0 is 1 nM and 3 is 1 µM. Smaller is tighter.
A mean of the replicates is given; it leaves out those without a signal.
A pair that was not seen in that replicate is written "nd"; this usually means weak binding, but a binder can also be missed.
Three control strains display no target. For library AAYL50, 18% of the pairings with them gave a signal, with a median of 4.19 and one signal in twenty below 2.99, so weak values seen in few replicates may be background. Also given: how often the same scFv was detected with the empty control strains.

The variant KSSQSVLYESRNKNGVA | WASTRES | QQYHKLPMS showed 1.76, 1.89, 1.82 (mean 1.82; controls 1 of 9).
The variant KSAQSVLYESRNPNSVA | WASTRES | QQYHRLPLS showed 0.91, 1.25, 1.07 (mean 1.08; controls 2 of 9).
The variant KSSQSVLYESRNSNYVC | WASTRES | QQYHRLPLS showed nd, nd, 3.51 (controls 0 of 9).
The variant KSSRSVLYESRNKNSVA | WASTYES | QQYHRHPLS showed nd, nd, nd (controls 1 of 9).
The variant KSSQSVYYERRNKKSVA | WASTRES | QQYHRLPLS showed nd, nd, nd (controls 0 of 9).
The variant KSSQSVLYESRNKNNVA | WASTRES | QQYHILFLS showed 5.56, nd, nd (controls 1 of 9).
The variant KSSQSVLYESRNKNSVA | WASVRES | TQYHRMPLS showed nd, nd, nd (controls 0 of 9).
The variant KSSQSVLYESQNKNSVD | WASTRES | QQYHRLPNS showed 3.09, nd, nd (controls 1 of 9).
The variant KSGQSVLYESRNKNSVA | WVSTRES | QQYARLPLS showed 0.99, 1.32, 1.10 (mean 1.13; controls 0 of 9).
The variant KYSESVLYESRNKNSVA | WASTRES | QQYHRLPLS showed -0.38, 0.04, -0.17 (mean -0.17; controls 2 of 9).
The variant KSSQSVLYESRCQNSVA | WASTDES | QQYHRLPLS showed nd, nd, 5.41 (controls 2 of 9).
The variant KSCCSVLYESRHKNSVA | WASTRES | QQYHRLPLS showed nd, nd, nd (controls 0 of 9).
The variant RSSQSVLYEQRNKNSVA | WASTRES | QQYHRWPLS showed 1.22, 1.14, 1.07 (mean 1.15; controls 7 of 9).
The variant KSSQSVLYELRNKNSVQ | PASTRES | QQYHRLPLS showed nd, nd, 5.36 (controls 0 of 9).
The variant KSDQSVLYESRNKNSVA | WASTRES | QQYHRLCSS showed 5.89, nd, nd (controls 2 of 9).
The variant KSSQSVPYWSRNKNSVA | WASTRES | QQYHRLPLS showed 2.01, 2.05, 2.40 (mean 2.15; controls 3 of 9).
The variant KSSPSGLYESRVKNSVA | WASTRES | QQYHRLPLS showed nd, nd, nd (controls 0 of 9).
The variant KSSQEALYESRNKNSVA | WASTRES | QQYWRLPLS showed 0.29, 0.59, 0.38 (mean 0.42; controls 0 of 9).
The variant KSSQSVLYESRNKNSVA | SASTRES | AQYQRLPLS showed 0.83, 0.94, 1.31 (mean 1.03; controls 0 of 9).
The variant KSSQSCLYESRNKNSVA | WASAREG | QQYHRLPLS showed nd, nd, nd (controls 0 of 9).
The variant FSSQSVLYEERNKNSVA | WASTRES | QQVHRLPLS showed 6.43, nd, 4.73 (mean 5.58; controls 2 of 9).
The variant KSKQSVLYESRVKNSVA | WASTRES | QQYERLPLS showed 1.55, nd, nd (controls 0 of 9).
The variant KSSGSVLYESGNKNSVA | WASTREH | QQYHRLPLS showed 1.01, 1.55, 1.66 (mean 1.41; controls 2 of 9).
The variant KSSQSVLYESRCNNSVA | WASTRKS | QQYHRLPLS showed 2.76, 2.71, 3.68 (mean 3.05; controls 1 of 9).
The variant KSFQSVLYESLNKNSVA | WASTRES | QQYHRLPLV showed 2.50, 3.18, 2.71 (mean 2.80; controls 0 of 9).
The variant ASSQSVSYESRNKNSVA | WASTREP | QQYHRLPLS showed 0.77, 0.94, 0.80 (mean 0.84; controls 0 of 9).
The variant KSSQSVLYESRNKNSAA | WASTRES | QQYHRLPLS showed nd, nd, nd (controls 0 of 9).
The variant KSSQSVLYESRVKNIVA | WASTRES | QQYHRLDLS showed nd, 4.43, nd (controls 0 of 9).
The variant KSWQSVLYESRNKNSVA | WASTRES | FCYHRLPLS showed nd, nd, nd (controls 0 of 9).
The variant KSSQSVLYESYNKNSVA | WASKRES | QQYHNLPLS showed 1.72, 1.71, 1.67 (mean 1.70; controls 1 of 9).
The variant KSSPSVLYESKNKNEVA | WASTRES | QQYHRLPLS showed 3.10, 2.68, 4.42 (mean 3.40; controls 2 of 9).
The variant KSSQSVLYESCRKNSVA | WASTRES | QQYHRLNLS showed 3.46, nd, nd (controls 1 of 9).
The variant KSSQSVLYPSRNKNSVA | YASTMES | QQYHRLPLS showed 2.92, 2.83, 3.00 (mean 2.92; controls 1 of 9).
The variant KSSQSVLYESRNKNSMA | WACTREY | QQYHRLPLS showed nd, 3.54, nd (controls 3 of 9).
The variant KSSQSVLYISKNKNSVA | WASQRES | QQYHRLPLS showed 2.13, 2.23, 1.99 (mean 2.12; controls 0 of 9).
The variant KSSQSVLYISRNQNSVA | WMSTRES | QQYHRLPLS showed nd, nd, nd (controls 1 of 9).
The variant KSKDSVLYESRNKNSVA | WNSTRES | QQYHRLPLS showed nd, nd, nd (controls 2 of 9).
The variant KSSQSVLYCPRNKNSEA | WASTRES | QQYHRLPLS showed nd, nd, nd (controls 1 of 9).
The variant KSSQSVLYESRNKGSVA | WASTRES | QLYHYLPLS showed nd, nd, nd (controls 2 of 9).
The variant KSQQSDLYMSRNKNSVA | WASTRES | QQYHRLPLS showed 0.01, 0.41, 0.24 (mean 0.22; controls 3 of 9).
The variant KSVQSVLYESYNKNSVA | WASTRES | QQYVRLPLS showed 1.58, 1.66, 2.16 (mean 1.80; controls 1 of 9).

The closing 4 entries, repeated:

CDR-L1,CDR-L2,CDR-L3,"replicates, log10 nM","mean, log10 nM",signal with controls
KSSQSVLYCPRNKNSEA,WASTRES,QQYHRLPLS,"nd, nd, nd",nd,1 of 9
KSSQSVLYESRNKGSVA,WASTRES,QLYHYLPLS,"nd, nd, nd",nd,2 of 9
KSQQSDLYMSRNKNSVA,WASTRES,QQYHRLPLS,"0.01, 0.41, 0.24",0.22,3 of 9
KSVQSVLYESYNKNSVA,WASTRES,QQYVRLPLS,"1.58, 1.66, 2.16",1.80,1 of 9

Parent in this assay: reference entry 0.65, copy in this library 1.68.